Laboratory results published in PubChem BioAssay AID504766 (The Scripps Research Institute Molecular Screening Center, 2011).
This is a selection; strong and weak results do not stand in their true shares. Some tests of the compounds listed are not included; inactive here does not mean inactive elsewhere. Active and inactive are the calls of the source.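 The calls were made as follows: active = inhibition above the mean over all tested compounds plus 3 SD (cut at about 4.2% in these data); inactive = the rest.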

The chains behind the UniProt entries cited, without tags or fusion partners. Residues count along the entry.
UniProt P51843, 207-470 limits assumed: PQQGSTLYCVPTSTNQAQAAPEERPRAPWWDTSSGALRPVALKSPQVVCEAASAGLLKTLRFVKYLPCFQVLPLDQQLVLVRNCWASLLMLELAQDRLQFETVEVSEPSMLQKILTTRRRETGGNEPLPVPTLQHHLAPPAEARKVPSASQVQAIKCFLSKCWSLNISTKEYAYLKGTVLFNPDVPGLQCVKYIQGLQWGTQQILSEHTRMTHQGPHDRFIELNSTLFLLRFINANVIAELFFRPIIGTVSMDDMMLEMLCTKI

Target: Nuclear receptor subfamily 0 group B member 1 (Homo sapiens) (UniProt P51843)
Test: relief of DAX1 transcriptional repression – cell-based, HEK293, Gal4-DAX1, luciferase luminescence, primary screen (AID 504766);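 also: 0% = DAX1-transfected cells with DMSO and 100% = empty-vector control cells with DMSO; inhibition shows as a rise in luminescence from relieved DAX1 repression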
Details: HEK293 Gal4-DAX1 luciferase reporter, at 6.75 µM, active compounds read high

Row | SMILES | inhibition
1 | COc1cc(C(=O)NCC2(N(C)C)CCCCC2)c([N+](=O)[O-])cc1OC | inactive: 1.92%
2 | CN(C)C1(CNC(=O)c2ccc(Br)cc2)CCCCC1 | inactive: 2%
3 | O=C(NCC1(N2CCCCC2)CCCCC1)c1cccc(Cl)c1 | inactive: 2.91%
4 | COc1cccc(C(=O)NCC2(N3CCCCC3)CCCCC2)c1 | inactive: 2.24%
5 | COc1ccc(Cl)cc1C(=O)NCC1(N(C)C)CCCCC1 | inactive: 1.58%
6 | O=C(OC1CN2CCC1CC2)C(CO)(c1ccccc1)c1ccccc1 (stereo unspecified) | inactive: 0.54%
7 | CC(C)Oc1ccc(C(=O)NCC2(N(C)C)CCCCC2)cc1 | inactive: 1.13%
8 | O=C(OCCN1CCCC1)C(O)(c1ccccc1)c1ccccc1 | inactive: 1.58%
9 | CN(C)c1cccc(C(=O)NCC2(N(C)C)CCCCC2)c1 | inactive: 0.31%
10 | C=C(C)C#CC(O)(C(=O)OC1CCN(C)CC1)c1ccccc1 (stereo unspecified) | inactive: 0.6%
11 | COc1ccc(Br)c(C(=O)NCC2(N3CCCCC3)CCCCC2)c1 | inactive: 1.08%
12 | CN1[C@@H]2CC[C@H]1CC(OC(=O)C(O)(c1ccccc1)c1ccccc1)C2 (stereo partly specified) | inactive: 2.96%
13 | O=C(NCC1(N2CCCCC2)CCCCC1)c1cc([N+](=O)[O-])ccc1Cl | inactive: 0.06%
14 | Cc1ccc(C(=O)NCC2(N3CCCCC3)CCCCC2)cc1 | inactive: -0.16%
15 | CCN(CC)CC(C)C(C)OC(=O)C(O)(c1ccccc1)c1ccccc1 (stereo unspecified) | inactive: -0.72%
16 | COc1cc(SC)ccc1C(=O)NCC1(N(C)C)CCCCC1 | inactive: 1.11%
17 | CC(C)N1C(=O)CC2(CCN(CCOC(=O)C(O)(c3ccccc3)c3ccccc3)CC2)C1=O | inactive: 0.66%
18 | Cc1ccccc1C(=O)NCC1(N2CCCCC2)CCCCC1 | inactive: 1.1%
19 | CN(C)c1ccc(C(=O)NCC2(N(C)C)CCCCC2)cc1 | inactive: -0.88%
20 | CN(C)C1CCCC1OC(=O)C(O)(c1ccccc1)c1ccccc1 (stereo unspecified) | inactive: 1.14%
21 | COc1ccc(C(=O)NCC2(N(C)C)CCCCC2)cc1 | inactive: 2.33%
22 | CCN1CCCC(OC(=O)C2(O)c3ccccc3C=Cc3ccccc32)C1 (stereo unspecified) | inactive: -0.54%
23 | Cc1cc(C(=O)NCC2(N3CCCCC3)CCCCC2)ccc1[N+](=O)[O-] | inactive: 1.17%
24 | O=C(NCC1(N2CCCCC2)CCCCC1)c1cccc(Br)c1 | inactive: 3.52%
25 | C=CCN1CCN(CCOC(=O)C(O)(c2ccccc2)c2ccccc2)CC1 | inactive: -0.72%
26 | O=C(NCC1(N2CCCCC2)CCCCC1)c1cc(F)c(F)cc1Cl | inactive: 0.92%
